“And” between values parts separate entries of the source, which are not always exact repeats. Identical values can stand only once.
Assays:
splenocytes = experiment: Cytokine production by cultured splenocytes of IP immunized mice (capture ELISA); assay type: in vivo
Method: Multivalent LNnT or Lewis^γ were conjugated with HSA (LNnT-HSA and Le^y-HSA) by Accurate Chemical and Scientific Corporation (NY). In both neoglycoproteins, 13 molecules of sugar conjugated to 1 HSA molecule. As controls, HSA (Sigma Chemical Co., Mo.), HSA adsorbed to alum (Intergen Company, NY; HSA-alum), or Dulbecco's PBS (Gibco BRL, NY) were prepared for immunization. Groups of four to six mice were immunized intraperitoneally or subcutaneously with Ags (10 μg of HSA) or saline. First and second boosting immunization were performed in the same fashion 2 and 3 weeks later, respectively. Protein concentration was determined by bicinchoninic acid (BCA) assay (Pierce, Ill.).
(§1) In flat-bottom 24-well culture plates (Corning), suspensions of 2.5×10^6 cells per ml were cultured with ConA (2 μg/ml) or without restimulation at 37° C. in supplemented RPMI 1640 medium as described above. 24, 72 and 120 hrs later, the cell cultures were then centrifuged, and the culture supernatants were harvested and kept frozen (−80° C.) until assayed. Pelleted cells were resuspended then stained with mAbs coupled to FITC or PE for immunofluorescent staining. IL-2, IL-4, IL-5, IL-10 and IFN-γ levels in supernatants from ConA-stimulated or unstimulated splenocytes were measured by capture ELISA. In brief, Maxisorp microtitre plates (Nunc Laboratories Ltd., Denmark) were coated with 50 μl of capture Ab at 2.0 μg/ml (rat anti-mouse IL-5, IL-10 and IFN-γ from Pharmingen and rat anti-mouse IL-4 from Endogen, Mass.) in Carbonate-bicarbonate buffer by overnight incubation at 4° C. Wells were then washed with PBS-T four times and blocked by addition of 10% FCS in PBS (2 hours, 37° C.). 50 μl of culture supernatants and appropriate recombinant standards were then added to individual well in duplicate. For standard curves, recombinant IL-5 (0 to 5,000 pg/ml), IL-10 (0 to 25,000 pg/ml), IFN-γ (0 to 20,000 pg/ml) (Pharmingen, Calif.) and IL-4 (0 to 1,500 pg/ml) (Endogen, Mass.) were used in duplicate. Following overnight incubation at 4° C., the wells were washed and appropriate 50 μl/well biotinylated detection Ab at 1 μg/ml (rat anti-mouse IL-5, IL-10 or IFN-γ from Pharmingin and rat anti-mouse IL-4 from Endogen) were added. For the detection of bound biotinylated Ab, 50 μl of streptavidin-alkaline phosphatase conjugate ( 1/2000, Pharmingen) was added to each well for 45 minutes, then washed. Level of cytokine in the wells was visualized by addition of p-nitrophenyl phosphate (Sigma) in glycine buffer. Absorbance was measured at 405 nm using a UVMax automatic microplate reader.

B220+ cells = experiment: B7-1 and B7-2 expression on B220+ splenocytes (immunofluorescent staining, flow cytometry); assay type: in vivo, mice
Method: as §1
Following in vitro culture without restimulation, splenocytes were resuspended and incubated on ice for 15 min with mAbs as follows: anti-CD45R/B220 (RA3-6B2), anti-B7-1 (16-10A 1), and anti-B7-2 (GL-1) or isotype-matched controls. All mAbs were either FITC- or PE-conjugated (Pharmingen). After washing with Hanks' balanced salt solution (Gibco) containing 0.05% sodium azide, flow cytometry analysis was performed by using a FACSCalibur flow cytometer and Cell Quest software (Becton Dickinson, CA). Dead cells were excluded from analysis on the basis of propidium iodide (Molecular Probes, OR) staining. Lymphocytes were gated according to the physical characteristics of forward and side scatter and at least 10,000 events were acquired.

[1] = in vitro stimulation ConA, 72 hrs
[2] = in vitro stimulation none, 24 hrs
[3] = in vitro stimulation none, 72 hrs
[4] = in vitro stimulation none, 120 hrs
[5] = splenocytes of IP immunized mice, without restimulation
[6] = vs mice IP immunized with saline or HSA

**Q.** “LNnT-HSA: Multivalent lacto-N-neotetraose conjugated with human serum albumin; 13 molecules of sugar per HSA molecule” was tested. Which “amounts of IL-5 and IL-6 vs wild type BALB/C mice” value (splenocytes; IL-4 deficient mice, splenocytes without restimulation) did it give?
**A.** significantly lower

**Q.** And the “IL-5, IL-6, and IFN-γ production by splenocytes” value (splenocytes; IL-4 deficient mice, without restimulation)?
**A.** produced

**Q.** And the IFN-g (splenocytes; [1])?
**A.** 3,358 ± 471 pg/ml and 5,917 ± 1,132 pg/ml

**Q.** And the IL-4 (splenocytes; [1])?
**A.** 234.00 ± 28.15 pg/mL

**Q.** What about the IL-5 (splenocytes; [1]) of the same substance?
**A.** 671 ± 34 pg/mL

**Q.** What about the IL-10 (splenocytes; [1]) of the same substance?
**A.** 1,529 ± 361 pg/ml

**Q.** What about the IL-4 (splenocytes; [2]) of the same substance?
**A.** 63.74 ± 24.11 pg/mL

**Q.** What about the IL-5 (splenocytes; [2]) of the same substance?
**A.** 178 ± 5 pg/mL

**Q.** And the IFN-g (splenocytes; [3])?
**A.** 2,090 ± 891 pg/ml

**Q.** And the IL-2 (splenocytes; [3])?
**A.** 2,060 ± 286 pg/ml

**Q.** And the IL-4 (splenocytes; [3])?
**A.** 479.07 ± 86.80 pg/mL

**Q.** What about the IL-5 (splenocytes; [3]) of the same substance?
**A.** 808 ± 93 pg/mL

**Q.** And the IL-10 (splenocytes; [3])?
**A.** 1,068 ± 223 pg/ml

**Q.** And the IFN-g (splenocytes; [4])?
**A.** 12,220 ± 1,251 pg/ml

**Q.** And the IL-2 (splenocytes; [4])?
**A.** 63 ± 1 pg/mL

**Q.** What about the IL-4 (splenocytes; [4]) of the same substance?
**A.** 1,363.33 ± 259.70 pg/ml

**Q.** And the IL-5 (splenocytes; [4])?
**A.** 3,018 ± 604 pg/ml

**Q.** What about the IL-10 (splenocytes; [4]) of the same substance?
**A.** 7,064 ± 1,381 pg/ml

**Q.** What about the “amounts of IFN-γ compared to the wild type” value (splenocytes; spleen cells of IL-4 gene deficient BALB/C mice) of the same substance?
**A.** same amounts

**Q.** And the IL-2 (splenocytes; splenocytes of IP immunized mice, in vitro stimulation none, 24 hrs)?
**A.** 209 ± 68 pg/mL

**Q.** What about the “IL-2, IL-4, and IL-5 detected in culture supernatants as early as” value (splenocytes; [5]) of the same substance?
**A.** 24 h

**Q.** And the “IL-10 and IFN-γ detected as early as” value (splenocytes; [5])?
**A.** 72 h

**Q.** What about the “IFN-γ production in response to ConA” value (splenocytes; [6]) of the same substance?
**A.** but not IFN-γ

**Q.** And the “IL4, IL-5, and IL-10 production in response to ConA” value (splenocytes; [6])?
**A.** significantly more

**Q.** And the “B220 positive cells expressing B7-2 molecule” value (B220+ cells; 24 hrs culture incubation without restimulation, vs saline or HSA)?
**A.** increased

**Q.** And the “B7-2 expression on B220+ cells” value (B220+ cells; IL-4 deficient mice)?
**A.** did not induce B7-2 expression

**Q.** And the “duration of increase of B7-2 expressing B220 positive cells” value (B220+ cells; culture without restimulation)?
**A.** at least 120 hrs

**Q.** And the “incubation after which increase of B7-2 expressing B220 positive cells was found” value (B220+ cells; culture without restimulation)?
**A.** 6 h

**Q.** And the “B7-1 expression on B220 positive cells” value (B220+ cells; cultured splenocytes without restimulation, throughout the period observed)?
**A.** not altered

**Q.** And the “percentage of the cells positive for both B7-2 and B220 molecules” value (B220+ cells; freshly isolated splenocytes, IP immunized mice)?
**A.** 0.56±0.04 percentage

**Q.** And the “percentage of the cells positive for both B7-1 and B220 molecules” value (B220+ cells; freshly isolated splenocytes, IP immunized mice, n=6)?
**A.** 0.88±0.06 percentage

— US20020142945A1, “Immunomodulatory methods using carbohydrate antigens” (President and Fellows of Harvard College, priority 1998, published 2002)
